The list is not random: actives were taken first. Their share in the collection is about 16%.
DT40 TDP1 CPT = DT40-hTDP1 cell growth loss with CPT; AID 686979; Potency, µM (titrated, usually from 46.2 µM), without a hit: top-dose activity change, negative = growth inhibition, most hits filed as inhibitors; chicken DT40 Tdp1-/-;hTDP1 cells + 20 nM CPT, ATP luminescence, 48 h; 12% of 420,000 active; also: potency is read from the fitted curve at half-maximal effect; % is scaled to controls: 0 for no effect and ±100 for the full control effect; nearly all actives have a fitted effect of over 55% in size
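Cell growth measured by CellTiter-Glo luminescence after a minimum 48 h, 37 C compound exposure with 20 nM CPT in Tdp1-knockout DT40 cells stably expressing hTDP1, seeded 400/well; qHTS titration format.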
TDP1 block = blocks human tyrosyl-DNA phosphodiesterase 1; Q9NUW8; recombinant TDP1, AlphaScreen DNA substrate cleavage; 0.28% of 350,000 active; AID 485290; Potency, µM (doses to about 130 µM), inactives show at the highest dose activity change, negative = inhibition, usual class: inhibitors; also: potency is read from the fitted curve at half-maximal effect; % is scaled to controls: 0 for no effect and ±100 for the full control effect; nearly all actives have a fitted effect of over 40% in size
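AlphaScreen read-out: signal falls as enzyme removes the 3' tyrosine-FITC from a 5'-biotinylated DNA oligo (15 nM, 5 min, RT). Enzyme was E. coli-made recombinant Tdp1 at 1 nM, exposed to compound for 15 min beforehand; beads 10 ug/ml, 10 min.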
miR-21 reporter = miR-21 reporter, rising signal | HeLa miR-21 FLuc reporter, luciferase, 48 h | Potency, µM (doses to about 38.3 µM), inactives show at the top dose reporter change, positive = more light | 340,000 tested, under 10 active | AID 2288; active = well fitted rising curve with a large enough effect; inconclusive = small, poorly fitted or top-dose-only effect; inactive = no such curve, though single readings can be large or run the other way;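 note: % of control where 0% means no effect; miR-21 action dims this reporter so a rising signal means less miR-21 action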
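HeLa miR-21-FLuc reporter line, endogenous miR-21; 2000 cells/well in DMEM/10% FBS; compound titration up to ~40uM final, 48 h, 37 degree Celsius; luciferase detection reagent, 15 min lysis, CCD luminescence.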
uPA surface inh = inhibitors of cell surface uPA generation; 0.31% of 330,000 active; Potency, µM (doses to about 38.3 µM), for the others: at the top dose activity change, negative = inhibition, usual class: inhibitors; AID 540303; cell surface uPA generation assay, qHTS; active = well fitted inhibition curve with a large enough effect; inconclusive = small, poorly fitted or top-dose-only effect; inactive = no such curve, though single readings can be large or run the other way; tested in mouse RAW 264.7 cells; also: potency is read from the fitted curve at half-maximal effect; % is scaled to controls: 0 for no effect and ±100 for the full control effect; nearly all actives have a fitted effect of over 55% in size
TDP1 cell noCPT = qHTS for Inhibitors of human tyrosyl-DNA phosphodiesterase 1 (TDP1): qHTS in cells in absence of CPT | 15% of 420,000 active | Potency, µM (highest dose often 46.2 µM), for the others: at the highest dose activity change, negative = growth inhibition, actives largely listed as inhibitors | AID 686978, 2013 | DT40 Tdp1-/- hTDP1 cells, no CPT, ATP luminescence, 48 h; also: potency is read from the fitted curve at half-maximal effect; % is scaled to controls: 0 for no effect and ±100 for the full control effect; nearly all actives have a fitted effect of over 55% in size
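Growth of hTDP1-complemented DT40 Tdp1-knockout cells is measured by ATP luminescence after at least 48 hr compound exposure at 37 °C, with DMSO substituting for the 20 nM CPT used in the parallel screen.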
An asterisk follows results filed as active; [ ] = another dose, or the depositor's remark. Unless noted, calls follow the shape of the dose curve; as a rule, active = well fitted curve in the direction sought with a large enough effect; inconclusive = small, poorly fitted or top-dose-only effect, or another doubt; inactive = no such curve, though single readings can be large; an effect the other way counts as inactive or inconclusive.

`C[C@H](O)[C@@H]1C(=O)N2CCc3ccc(N4CCOCC4)cc3[C@@H]2C[C@@H]1N(C)S(=O)(=O)c1ccccc1` gave DT40 TDP1 CPT inconclusive, uPA surface inh 9.2% and TDP1 cell noCPT -13.8%.
For COCCn1c(N2CCCC2)nc2c1c(=O)[nH]c(=O)n2C the results were DT40 TDP1 CPT 6.4%, miR-21 reporter 0.2%, uPA surface inh 2.4% and TDP1 cell noCPT 0.5%.
Cc1cc(C)c2c(n1)nn1c(C)c(CCC(=O)Nc3cccc(C)c3C)c(C)nc21 was read as DT40 TDP1 CPT 7.31µM*, TDP1 block -2.5%, miR-21 reporter -0.9% and TDP1 cell noCPT 7.31µM*.
For COc1cccc(CNC(=O)CCc2c(C)nc3c4c(C)cc(C)nc4nn3c2C)c1 the results were DT40 TDP1 CPT inconclusive, TDP1 block 0.0%, miR-21 reporter 4.3% and TDP1 cell noCPT 23.1µM*.
Screening COc1cc(OC)c(NC(=O)CCc2c(C)nc3c4c(C)cc(C)nc4nn3c2C)cc1Cl returned DT40 TDP1 CPT -17.9%, TDP1 block -2.5%, miR-21 reporter -5.6% and TDP1 cell noCPT -20.8%.
Screening CS(=O)(=O)c1nc(-c2ccc(Br)cc2)n[nH]1 returned DT40 TDP1 CPT -10.6%, TDP1 block -5.4%, miR-21 reporter -13.6%, uPA surface inh -2.5% and TDP1 cell noCPT -17.7%.
`Cc1cc2c(cc1S(=O)(=O)N(C)CC(=O)Nc1cccc(C#N)c1)OCC(=O)N2` gave DT40 TDP1 CPT 3.6%, TDP1 block 5.4%, miR-21 reporter -1.2% and TDP1 cell noCPT -18.0%.
Screening CN(CC(=O)Nc1ccncc1)S(=O)(=O)c1ccc(Br)cc1 returned DT40 TDP1 CPT inconclusive, TDP1 block 0.0%, miR-21 reporter 1.7% and TDP1 cell noCPT inconclusive.
Screening Cc1ccc(CC(=O)Nc2ccncc2)cc1 returned DT40 TDP1 CPT 5.8µM*, TDP1 block -2.4%, miR-21 reporter 18.1%, uPA surface inh -29.1% and TDP1 cell noCPT 4.61µM*.
Screening O=C(Nc1ccncc1)Nc1ccc(Cl)cc1 returned DT40 TDP1 CPT inconclusive, TDP1 block 3.8%[56.1 µM], miR-21 reporter -27.2%, uPA surface inh -4.6% and TDP1 cell noCPT inconclusive.

Structures listed so far with an NH in an aromatic ring (2):
For COCCn1c(N2CCCC2)nc2c1c(=O)[nH]c(=O)n2C the results were DT40 TDP1 CPT 6.4%, miR-21 reporter 0.2%, uPA surface inh 2.4% and TDP1 cell noCPT 0.5%.
Screening CS(=O)(=O)c1nc(-c2ccc(Br)cc2)n[nH]1 returned DT40 TDP1 CPT -10.6%, TDP1 block -5.4%, miR-21 reporter -13.6%, uPA surface inh -2.5% and TDP1 cell noCPT -17.7%.

The listing continues.
CN(CCCC(=O)Nc1ccncc1)S(=O)(=O)c1ccc(Cl)cc1 was read as DT40 TDP1 CPT 16.4µM*, TDP1 block 2.1%, miR-21 reporter 17.9%, uPA surface inh -3.2% and TDP1 cell noCPT 23.1µM*.
O=C(Cc1ccc(Cl)cc1)Nc1ccncc1 was read as DT40 TDP1 CPT 11.6µM*, TDP1 block -1.2%, miR-21 reporter 17.8%, uPA surface inh -3.1% and TDP1 cell noCPT 9.2µM*.
For O=C(NC(NC(=S)Nc1ccc(Cl)cc1Cl)C(Cl)(Cl)Cl)c1cccc([N+](=O)[O-])c1 (stereo unspecified) the results were DT40 TDP1 CPT 7.31µM*, TDP1 block 7.8%, miR-21 reporter inconclusive, uPA surface inh -7.0% and TDP1 cell noCPT 5.8µM*.
`O=C(O)c1cccc(NC(=S)NC(NC(=O)c2cccc([N+](=O)[O-])c2)C(Cl)(Cl)Cl)c1` (stereo unspecified) gave DT40 TDP1 CPT 1.9%, TDP1 block 79.4µM*, miR-21 reporter 0.4%, uPA surface inh -11.3% and TDP1 cell noCPT 1.3%.
For O=C(Nc1ccc([N+](=O)[O-])cc1Cl)c1cccc([N+](=O)[O-])c1 the results were DT40 TDP1 CPT -17.3% and TDP1 cell noCPT -29.5%.
Screening CCN(CC)CC(C)CNC(=O)CN1C(=O)CSc2ccc(S(=O)(=O)N3CCOCC3)cc21 (stereo unspecified) returned DT40 TDP1 CPT 7.5%, TDP1 block -5.2%, miR-21 reporter 0.4%, uPA surface inh 2.2% and TDP1 cell noCPT 4.7%.
Screening Cc1oc(C(C)(C)C)cc1C(=O)NCc1ccc2c(c1)OCO2 returned DT40 TDP1 CPT -7.9%, TDP1 block 0.0%, miR-21 reporter -3.4%, uPA surface inh 1.0% and TDP1 cell noCPT inconclusive.
Screening Cn1nc(C(C)(C)C)cc1C(=O)NCc1ccc2c(c1)OCO2 returned DT40 TDP1 CPT 4.61µM*, TDP1 block -0.4%, miR-21 reporter 13.2%, uPA surface inh -23.4% and TDP1 cell noCPT 1.84µM*.
`COc1cccc(-c2nn(C)c3sc(C(=O)NCc4ccc(C)o4)cc23)c1` gave DT40 TDP1 CPT inconclusive, TDP1 block -4.3%, miR-21 reporter 13.4%, uPA surface inh -10.2% and TDP1 cell noCPT 23.1µM*.
`COc1cccc(-c2nn(C)c3sc(C(=O)NCc4ccc(OC)cc4OC)cc23)c1` gave DT40 TDP1 CPT inconclusive, TDP1 block 2.3%, miR-21 reporter 21.5% and TDP1 cell noCPT inconclusive.

Looked up by compound from above:
`COc1cccc(-c2nn(C)c3sc(C(=O)NCc4ccc(C)o4)cc23)c1` gave DT40 TDP1 CPT inconclusive, TDP1 block -4.3%, miR-21 reporter 13.4%, uPA surface inh -10.2% and TDP1 cell noCPT 23.1µM*.
Screening Cc1oc(C(C)(C)C)cc1C(=O)NCc1ccc2c(c1)OCO2 returned DT40 TDP1 CPT -7.9%, TDP1 block 0.0%, miR-21 reporter -3.4%, uPA surface inh 1.0% and TDP1 cell noCPT inconclusive.

Next section:
`CCOC(=O)c1cccc(NC(=O)c2cc3c(-c4cccc(OC)c4)nn(C)c3s2)c1` gave DT40 TDP1 CPT 16.4µM*, TDP1 block -2.3%, miR-21 reporter 21.1% and TDP1 cell noCPT 16.4µM*.
`COc1cccc(-c2nn(C)c3sc(C(=O)NCc4ccc5c(c4)OCO5)cc23)c1` gave DT40 TDP1 CPT 13µM*, TDP1 block -2.5%, miR-21 reporter 2.8%, uPA surface inh 22.5% and TDP1 cell noCPT inconclusive.
CCOc1ccc(C(=O)NCC(C)NC(=O)c2ccc(OCC)cc2)cc1 (stereo unspecified) was read as DT40 TDP1 CPT 6.3%, miR-21 reporter 2.3%, uPA surface inh 13.8% and TDP1 cell noCPT -6.3%.
For c1coc(-c2nc(N=C3N=c4ccccc4=N3)[nH]c2-c2ccco2)c1 the results were DT40 TDP1 CPT -27.3% and TDP1 cell noCPT inconclusive.
For COc1cccc(-c2cccc(NC(=O)C3CCN(Cc4ccc(CO)o4)CC3)c2)c1 the results were DT40 TDP1 CPT -13.2%, TDP1 block 3.5%, miR-21 reporter -12.8%, uPA surface inh -2.8% and TDP1 cell noCPT 8.3%.
`CC(C)n1c(SCC(=O)Nc2ccc3c(c2)OCO3)nc2c1c(=O)n(C)c(=O)n2C` gave DT40 TDP1 CPT inconclusive, TDP1 block 1.9%, miR-21 reporter -1.2%, uPA surface inh -3.5% and TDP1 cell noCPT inconclusive.
Screening CCn1c(SCC(=O)Nc2nc3ccc(OC)cc3s2)nc2c1c(=O)n(C)c(=O)n2C returned DT40 TDP1 CPT 18.4µM*, TDP1 block 3.0%, miR-21 reporter -4.0% and TDP1 cell noCPT inconclusive.
CC(C)n1c(SCC(=O)Nc2nc3ccccc3s2)nc2c1c(=O)n(C)c(=O)n2C was read as DT40 TDP1 CPT 16.4µM*, uPA surface inh 1.9% and TDP1 cell noCPT 20.6µM*.
CCOc1ccc2nc(NC(=O)CSc3nc4c(c(=O)n(C)c(=O)n4C)n3C(C)C)sc2c1 was read as DT40 TDP1 CPT 23.1µM*, TDP1 block 0.0%, miR-21 reporter -4.3%, uPA surface inh -10.7% and TDP1 cell noCPT 14.6µM*.
